System: CYP3A4
Assay type: in vivo, human
Conditions: increase in paclitaxel AUC and Cmax less than two-fold in the presence of pazopanib and lapatinib

5-((4-((2,3-dimethyl-2H-indazol-6-yl)methylamino]-2-pyrimidinyl)amino)-2-methyl-benzenesulfonamide [pazopanib]
Inhibition of CYP3A4 (classification): weak inhibitors

Source: paper PMC4037836 (British Journal of Cancer, 2014)
